Test results: ChEMBL document CHEMBL1156201, “2-MeS-beta,gamma-CCl2-ATP is a potent agent for reducing intraocular pressure” (J Med Chem, 2010)

Amino acid sequences for entries named in this document (tags omitted). A change or cut given only in a name is not applied to a line headed by its entry.
UniProt P49652: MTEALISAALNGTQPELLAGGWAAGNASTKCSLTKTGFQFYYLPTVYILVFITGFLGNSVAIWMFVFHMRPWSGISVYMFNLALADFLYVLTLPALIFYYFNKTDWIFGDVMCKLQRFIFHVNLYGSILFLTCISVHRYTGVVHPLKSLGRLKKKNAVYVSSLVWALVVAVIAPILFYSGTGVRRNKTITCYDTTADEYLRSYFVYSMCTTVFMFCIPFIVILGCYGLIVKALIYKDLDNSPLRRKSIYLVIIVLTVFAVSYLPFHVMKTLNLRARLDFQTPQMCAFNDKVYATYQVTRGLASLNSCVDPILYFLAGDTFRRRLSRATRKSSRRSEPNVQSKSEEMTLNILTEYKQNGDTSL

Target: P2Y purinoceptor 1 (Meleagris gallopavo, UniProt P49652)
Assay: Agonist activity at turkey P2Y1 receptor expressed in human […] receptor assessed as induction of intracellular calcium mobilization
Assay type: functional, cell-based
Procedure, shortened: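 1321N1 astrocytoma cells stably expressing turkey P2Y1, grown in DMEM with 5% FBS and G-418. Fura-2-loaded cell suspensions were treated at 37 °C in 10 mM HEPES-buffered saline (pH 7.4) with 1 mM CaCl2 and 1 mM MgCl2. Maximal [Ca2+]i rise was read by dual-excitation spectrofluorometry across concentrations, and EC50 was fitted from the curves. Three experiments in triplicate.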

Q: Which EC50 does the source give for `CSc1nc(N)c2ncn([C@@H]3O[C@H](COP(=O)(O)OP(=O)(O)O)[C@@H](O)[C@H]3O)c2n1` here?
A: 2.5 nM
